Assay results as given in patent US12286657B2, “Methods and compositions” (United Kingdom Research and Innovation, priority 2018, dated 2025).

Sequences of proteins named here, by UniProt entry; tags and fusion partners are left off.
UniProt Q6WRH6, whole entry Y271C/N311Q/Y349F/V366C, looked up: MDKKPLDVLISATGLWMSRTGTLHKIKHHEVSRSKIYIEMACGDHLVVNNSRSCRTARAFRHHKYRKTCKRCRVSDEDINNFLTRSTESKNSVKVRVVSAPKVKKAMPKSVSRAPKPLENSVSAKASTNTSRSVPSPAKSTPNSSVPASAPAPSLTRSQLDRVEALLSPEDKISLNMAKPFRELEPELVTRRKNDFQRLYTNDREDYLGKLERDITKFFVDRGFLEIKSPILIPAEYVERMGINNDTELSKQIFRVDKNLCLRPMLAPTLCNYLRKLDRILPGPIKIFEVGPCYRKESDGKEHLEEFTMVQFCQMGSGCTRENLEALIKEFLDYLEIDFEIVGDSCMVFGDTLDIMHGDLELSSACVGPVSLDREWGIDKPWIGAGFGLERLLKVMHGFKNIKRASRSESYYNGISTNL

How the values were obtained:
[1] = biological target: DAPRS/tRNACUA pair (Methanosarcina barkeri, UniProt Q6WRH6, N311Q/V366C/Y271C/Y349F); experiment: phenotyping of DAPRS/tRNACUA pair with cat(112TAG) reporter on chloramphenicol; type: cell-based, E. coli; conditions: in the presence of 6
[2] = biological target: DAPRS/tRNAPylCUA pair (Methanosarcina barkeri, UniProt Q6WRH6, N311Q/V366C/Y271C/Y349F); experiment: sfGFP(150TAG)His6 expression with DAPRS/tRNAPylCUA; type: cell-based, E. coli; conditions: sfGFP(150TAG)His6, 1 mM amino acid, versus BocK with PylRS/tRNAPylCUA

In the case of `CC(SCCOC(=O)NC[C@H](N)C(=O)O)c1cc2c(cc1[N+](=O)[O-])OCO2` (mixture of isomers) [Compound 6], the “chloramphenicol resistance conferred by selected clone” value [1] is reported as “high levels of chloramphenicol resistance” and the “yield of GFP incorporating the amino acid” value [2] is reported as “comparable”.
